Laboratory results as given in patent US8530490B2, “Uracil compound or salt thereof having human deoxyuridine triphosphatase inhibitory activity” (Taiho Pharmaceutical Co., Ltd., priority 2008, dated 2013).
Like-named read-outs stand apart in the source and are kept apart here.

Protein sequences, listed by entry. Tags and fused reporters are not part of them. Residues count along the entry.
UniProt P33316, 94-252: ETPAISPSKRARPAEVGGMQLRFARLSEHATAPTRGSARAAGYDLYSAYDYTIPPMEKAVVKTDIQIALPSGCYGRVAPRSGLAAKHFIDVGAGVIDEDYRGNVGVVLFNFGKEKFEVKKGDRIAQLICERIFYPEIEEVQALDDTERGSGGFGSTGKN

Target: human dUTPase (Homo sapiens (Human), UniProt P33316)
Assay: Human dUTPase inhibitory effect: production of [5-3H]dUMP from [5-3H]dUTP, measured by HPLC with flow scintillation
Type: biochemical
Procedure: The inhibitory activity of the compound of the present invention against human dUTPase was determined by measuring the production of [5-^3H]deoxyuridine monophosphate (hereinafter, referred to as [5-^3H]dUMP) from [5-^3H]deoxyuridine triphosphate (hereinafter, referred to as [5-^3H]dUTP) according to a method shown below.
Specifically, 0.2 mL in total of a solution containing 0.02 mL of 1 μM dUTP (including 588 Bq/mL [5-3H]dUTP), 0.05 mL of a 0.2 M Tris buffer solution (pH 7.4), 0.05 mL of 16 mM magnesium chloride, 0.02 mL of 20 mM 2-mercaptoethanol, 0.02 mL of a 1% aqueous solution of fetal bovine serum-derived albumin, 0.02 mL of varying concentrations of test compound solutions or pure water as a control, and 0.02 mL of a solution of human dUTPase (expressed using E. coli and purified) was reacted at 37° C. for 15 minutes. Immediately after the reaction, the solution was heated at 100° C. for 1 minute to terminate the reaction, followed by centrifugation at 15000 rpm for 2 minutes. An aliquot (150 μL) of the supernatant thus obtained by centrifugation was analyzed using an Atlantis dC18 column (manufactured by Waters Corp., 4.6×250 mm) and a high-performance liquid chromatograph (manufactured by Shimadzu Corp., Prominence). […]
The inhibitory activity of the test compound was determined according to the formula shown below.

SMILES | IC50 [nM] | IC50 (human dUTPase, [5-3H]dUMP production from [5-3H]dUTP, 37° C., 15 minutes, read-out: IC50) [nM]
CC(C)(CC/C=C/Cn1ccc(=O)[nH]c1=O)NS(=O)(=O)c1cccc(OCC2CC2)c1 [Example 173, (E)-3-(cyclopropylmethoxy)-N-(7-(2,4-dioxo-3,4-dihydropyrimidin-1(2H)-yl)-2-methylhept-5-en-2-yl)benzenesulfonamide] | 40 | 
CC(C)(COCCCn1ccc(=O)[nH]c1=O)NS(=O)(=O)c1cccc(OCC2CC2)c1 [Example 175, 3-(cyclopropylmethoxy)-N-(1-(3-(2,4-dioxo-3,4-dihydropyrimidin-1(2H)-yl)propoxy)-2-methylpropan-2-yl)benzenesulfonamide] |  | 330
